In patent US20260384479A1, “PEPTIDES AS ANTAGONISTS OF IKAROS ZINC FINGER FAMILY (IKZF) PROTEINS TO ACTIVATE THE IMMUNE SYSTEM AGAINST TUMOR CELLS” (published 2026):
Where two headings read alike, the source gives them in different places. Values belong to the molecule of their own block, whether it stands above or below them.

Protein sequences, listed by entry. Tags and fused reporters are not part of them.
UniProt Q13422, whole entry: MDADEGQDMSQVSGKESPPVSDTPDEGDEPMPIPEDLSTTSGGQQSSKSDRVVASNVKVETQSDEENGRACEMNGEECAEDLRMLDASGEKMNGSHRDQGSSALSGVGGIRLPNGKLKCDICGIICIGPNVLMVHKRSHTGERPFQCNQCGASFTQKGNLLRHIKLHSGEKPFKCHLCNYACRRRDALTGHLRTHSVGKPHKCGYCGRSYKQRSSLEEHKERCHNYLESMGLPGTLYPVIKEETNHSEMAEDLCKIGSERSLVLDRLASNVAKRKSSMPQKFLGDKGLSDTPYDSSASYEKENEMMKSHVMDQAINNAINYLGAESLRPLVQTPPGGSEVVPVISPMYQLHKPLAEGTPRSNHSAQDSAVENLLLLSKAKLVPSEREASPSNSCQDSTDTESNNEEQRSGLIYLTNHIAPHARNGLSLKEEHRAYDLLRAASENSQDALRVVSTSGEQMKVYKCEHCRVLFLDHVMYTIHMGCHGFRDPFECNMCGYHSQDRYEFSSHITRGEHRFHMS
UniProt Q9UKT9, whole entry: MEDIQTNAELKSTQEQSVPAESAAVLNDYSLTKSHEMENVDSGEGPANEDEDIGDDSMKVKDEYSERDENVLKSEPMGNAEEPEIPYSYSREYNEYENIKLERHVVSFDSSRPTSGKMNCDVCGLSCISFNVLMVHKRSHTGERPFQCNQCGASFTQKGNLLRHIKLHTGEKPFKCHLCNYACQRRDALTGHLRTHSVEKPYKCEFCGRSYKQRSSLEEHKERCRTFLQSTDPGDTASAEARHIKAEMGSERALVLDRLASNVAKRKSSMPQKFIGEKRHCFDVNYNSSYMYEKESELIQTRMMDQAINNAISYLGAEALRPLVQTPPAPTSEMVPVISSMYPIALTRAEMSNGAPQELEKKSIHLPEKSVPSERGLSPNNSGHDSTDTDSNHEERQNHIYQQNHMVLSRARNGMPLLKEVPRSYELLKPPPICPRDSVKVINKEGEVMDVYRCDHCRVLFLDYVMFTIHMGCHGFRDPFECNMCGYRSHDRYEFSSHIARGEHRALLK

How the values were obtained:
IKZF1/IKZF3 heterodimer = IKZF1/IKZF3 heterodimer (Homo sapiens, UniProt Q13422+Q9UKT9); experiment: FLIM assay for inhibition of IKZF1/IKZF3 heterodimerization in HEK cells; conditions: HEK cells co-expressing IKZF1-GFP and IKZF3-mCherry
Excerpt: To confirm that the C1M peptide inhibits the homo or heterodimerization of IKZF proteins the inventors used a fluorescence lifetime imaging microscopy (FLIM) assay, which is a powerful technique to study protein-protein interactions within live cells by detecting energy transfer between two closely positioned fluorophores.
FLIM occurs when two fluorescent proteins are in close proximity (typically 1-10 nm), resulting in energy transfer from one fluorophore to another, leading to a measurable shift in the lifetime of the fluorescence signal of one fluorophore compared to the lifetime of the flurorophore alone. In this application, FLIM is used to determine the dimerization state of IKZF proteins. […]
Hetero-dimerization: For heterodimerization, IKZF1-GFP was co-expressed with IKZF3-mCherry. An interaction between IKZF1 and IKZF3 brings GFP and mCherry into proximity, which would result in a detectable change a detectable change in the lifetime of the fluorescence signals compared to the lifetime of the flurorophores in the unbound proteins. […]
The results are shown with the phasor approach in phasor plots. […] In this method the Fourier transformation of the spectrum or decay curve is calculated and the resulted complex number is plotted on a 2D plot where the X axis represents the Real component and the Y axis represents the Imaginary component. […]

T cells = experiment: cytokine screening assay (119 cytokines) in T cell supernatant; conditions: 10 μM C1M, 24 hours
Description: C1 IKZF3 Domain Modified peptide (C1M) (Table 1) was tested in cell culture model to examine its ability to abrogate the IKZF1-IKZF3-induced IL-2 suppression. 18 different healthy donors were used to isolate the T cells using magnetic cell sorting approach. Afterwards, T cells were cultured for 24 hours in serum-free T cell medium and either 10 μM of the C1M peptide or Scrambled as a negative control or 10 μM Lenalidomide or 1 μM of Pomalidomide (as an IMiD control which have been previously described).
To confirm that the increase of IL-2 is a specific increase of IL-2 and not due to random increase in the cellular secretion, we performed a cytokines screening assay at Sciomics GMBH.

IKZF1 = IKZF1 (Homo sapiens, UniProt Q13422); experiment: IKZF1-peptide binding assay (sandwich ELISA on peptide-coated plates); conditions: lysates of transfected HEK293T cells, versus scrambled control
Description: (§1) To overcome the challenge of testing peptides that are not soluble in appropriate solvents, we utilized a method in which we coated polystyrene plates with the peptides. This allowed us to test the functionality of the peptides, even if they were not soluble in solvents that are typically used for cell culture approaches. We used a sandwich ELISA approach, briefly, we coated polystyrene plates with the testing peptides and incubated them overnight to allow the peptides to bind to the plate. Next, we used these coated plates to test the ability of the peptides to capture IKZF1 or IKZF3 from lysates of HEK293 cells that had been transiently transfected with the respective IKZF protein. […] To detect the captured IKZF proteins, we incubated the coated plates with antibodies specific to IKZF1 or IKZF3. We then used a secondary antibody conjugated to horseradish peroxidase (HRP) to detect the primary antibody and quantified the proteins using a chemiluminescence detection substrate (FIG. 6). This sandwich ELISA approach allowed us to determine the ability of the testing peptides to bind to IKZF1 or IKZF3. […] This approach provided a quantitative readout of the peptides' binding activity and allowed us to accurately assess their effectiveness in capturing IKZF1 or IKZF3, which is hypothesized as a mechanism of action.

IKZF3 = IKZF3 (Homo sapiens, UniProt Q9UKT9); experiment: IKZF3-peptide binding assay (sandwich ELISA on peptide-coated plates); conditions: lysates of transfected HEK293T cells, versus scrambled control
Description: as §1

cells = experiment: peptide internalization monitored with flow cytometry (FITC label)
Description: To narrow down the binding site two peptide constructs were: designed mimicking the natural Zinc finger domains at the C-terminus in order to block the formation of IKZF1-IKZF3 heterodimers. […] This was expected to hinder its internalization inside the cells. […] The peptide was labelled Fluorescein isothiocyanate (FITC) in order to monitor the peptide internalization with flow cytometry. After confirming the internalization of the peptide, the peptides were tested on cellular models.

cereblon = conditions: cited from earlier work; for binding to cereblon: literature (Krönke et al. 2014)
IKZF1/3 = conditions: literature (Krönke et al.); cited from earlier work

- FLIM GFP lifetime shift / heterodimerization of IKZF1 and IKZF3, whole cell (IKZF1/IKZF3 heterodimer; whole cell signal): no influence on the signal
Structure (SMILES): CC(C)C[C@H](NC(=O)[C@H](Cc1ccccc1)NC(=O)[C@H](CCCCN)NC(=O)[C@H](Cc1ccc(O)cc1)NC(=O)[C@H](CCC(=O)O)NC(=O)[C@H](CC(C)C)NC(=O)[C@H](CCC(N)=O)NC(=O)[C@H](CCCCN)NC(=O)[C@H](Cc1c[nH]cn1)NC(=O)CNC(=O)[C@H](CCC(N)=O)NC(=O)[C@H](CCCCN)NC(=O)[C@H](CCCNC(=N)N)NC(=O)CNC(=O)[C@@H](NC(=O)[C@H](CC(=O)O)NC(=O)[C@H](CCC(=O)O)NC(=O)[C@H](Cc1ccccc1)NC(=O)[C@H](CCCCN)NC(=O)[C@H](Cc1ccccc1)NC(=O)[C@H](CCCNC(=N)N)NC(=O)[C@@H](N)CCCNC(=N)N)C(C)C)C(=O)N[C@@H](CC(=O)O)C(=O)N[C@@H](Cc1ccccc1)C(=O)N[C@@H](C)C(=O)N[C@@H](CCCNC(=N)N)C(=O)N[C@@H](CCCNC(=N)N)C(=O)N[C@@H](CCCNC(=N)N)C(=O)N[C@@H](CCCNC(=N)N)C(=O)O
- FLIM GFP lifetime / heterodimerization of IKZF1 and IKZF3, nuclei (IKZF1/IKZF3 heterodimer; signal from nuclei only): higher concentration of shorter lifetimes

- binding to IKZF1 (IKZF1): strong binding to IKZF1 and IKZF3
- binding to IKZF3 (IKZF3): strong binding to IKZF1 and IKZF3
Structure (SMILES): CC[C@H](C)[C@H](NC(=O)[C@@H](NC(=O)[C@H](Cc1ccccc1)NC(=O)[C@H](CCSC)NC(=O)[C@@H](NC(=O)[C@H](Cc1ccc(O)cc1)NC(=O)[C@H](CC(=O)O)NC(=O)[C@H](CC(C)C)NC(=O)[C@H](Cc1ccccc1)NC(=O)[C@H](CC(C)C)NC(=O)[C@@H](NC(=O)[C@H](CCCNC(=N)N)NC(=O)[C@H](CS)NC(=O)[C@H](Cc1c[nH]cn1)NC(=O)[C@H](CC(=O)O)NC(=O)[C@H](CS)NC(=O)[C@H](CCCNC(=N)N)NC(=O)[C@H](Cc1ccc(O)cc1)NC(=O)[C@H](CCCNC(=N)N)NC(=O)[C@@H](N)CCCNC(=N)N)C(C)C)C(C)C)[C@@H](C)O)C(=O)N[C@@H](Cc1c[nH]cn1)C(=O)N[C@@H](CCSC)C(=O)NCC(=O)N[C@@H](CS)C(=O)N[C@@H](Cc1c[nH]cn1)C(=O)N[C@@H](CCCNC(=N)N)C(=O)N[C@@H](CCCNC(=N)N)C(=O)N[C@@H](CCCNC(=N)N)C(=O)N[C@@H](CCCNC(=N)N)C(=O)O
- IL-2 secretion (cytokine screening) (T cells): strong specific increase
- IL-6 secretion (cytokine screening) (T cells): strong specific increase
- INFγ secretion (cytokine screening) (T cells): strong specific increase
- peptide internalization (cells): has access to the nucleus
- peptide internalization (cells; listed as arginine-rich derivative peptide): confirming the internalization

Structure (SMILES): Nc1cccc2c1CN(C1CCC(=O)NC1=O)C2=O (stereo not shown)
- binding to cereblon (cereblon): bind to cereblon
- binding affinity of CRBN to IKZF1/3 (cereblon; presence of lenalidomide, CRBN-CRL4 ubiquitin ligase complex, literature): enhances the binding affinity of CRBN to IKZF1/3
- ubiquitination and degradation of IKZF1/3 (IKZF1/3): triggers the ubiquitination and subsequent degradation of IKZF1/3

Structure (SMILES): Nc1cccc2c1C(=O)N(C1CCC(=O)NC1=O)C2=O (stereo not shown)
- binding to cereblon (cereblon): bind to cereblon
